Test results as given in patent US6429286B1, “Immunoregulatory molecules for costimulatory signal transduction” (priority 1997, dated 2002).

What was measured:
[1] = test system: anti-mouse CTLA-4 monoclonal antibody; assay: ELISA: reactivity of plate-coated phage clones with the anti-mouse CTLA-4 monoclonal antibody; type: binding, hamster; conditions: phage 4x10^9 virions/well, antibody 200 ng/ml, FIG. 2 and 3
Experimental: The obtained 58 phage clones were subjected to primary screening with ELISA. A 96 well ELISA plate (Sumitomo Bakelite, Tokyo) was coated with each phage (4×10^9 virions/well/40 μl) purified as described by Smith et al. (G. P. Smith, Method in Enzymology, Vol. 217, p.228-257 (1993), Academic Press) at 4° C. overnight. The plate was washed with TBST and was blocked with 100 μl/well of 50 mM Tris-HCl, pH 7.5, 150 mM NaCl supplemented with 0.02% NaN3 and 1% BSA at room temperature for 2 hours. After washing with TBST, the plate was added with the anti-mouse CTLA-4 monoclonal antibody (200 ng/ml/well/100 μl) and reacted at room temperature for 1 hour. After washing with TBST; the plate was reacted with anti-hamster IgG antibody (Zymet, California) labeled with alkaline phosphatase diluted to 250-fold with TBS at room temperature for 1 hour. After washing, the plate was added with the substrate sodium p-nitrophenylphosphate hexahydrate (Wako Junyaku, Osaka) was added and absorbance at 405 nm was measured.
Whether each of the motifs as shown in Example 4 specifically binds to the anti-mouse CTLA-4 monoclonal antibody was investigated. A degree of specificity was determined by ELISA as described in Example 3. As a negative control, anti-mouse CD28 antibody (Phamingen, San Diego), having the same isotype with the anti-mouse CTLA-4 monoclonal antibody, and hamster IgG were used. […]

T cells (spleen cells) = assay: T cell growth, [3H]-thymidine take-up by spleen cells of mice primed with W. T. phage; type: cell-based, BALB/c mice; conditions: phage 0.015 to 5 μg/ml, three days culture, FIG. 4
Experimental: BALB/c mice (6 weeks old; four animals per group) were used in an experiment and the phages were purified as described by Smith et al. (G. P. Smith, Method in Enzymology, Vol. 217, p.228-257 (1993), Academic Press). An amount of the phages was measured using protein assay kit (BioRad) with bovine serum albumin as a standard and expressed as a protein concentration.
First, for antigen, stimulation, BALB/c mice were administered intraperitoneally with 10 μg (200 μl/PBS) of phage (W. T.) not expressing pIII protein. Four weeks after the administration, spleen cells were removed from each mouse in the usual manner. The spleen cells were added to each well of 96-well culture plate at 1.5×10^5 cells/well. To each well was added purified W. T. or phages expressing any of F1 to F6 sequence at a final concentration of 0.015 to 5 μg/ml to make a total volume of 200 μl (RPMS 1640 medium containing 10% FCS) Triplicates were used for each sample. After incubating these samples on ice for 30 minutes, the cells were cultured under condition of 5% CO2 at 37° C. for three days. Eighteen hours before completion of culture, the cells were pulse-labeled with [^3H]-thymidine (0.5 μCi/well). The cells were harvested with a cell harvester and a take-up of [^3H]-thymidine was measured with a liquid scintillation counter.

## Ala Cys Val Met Tyr Asp Phe Val Leu Arg Gly Met Cys Ala Arg
[1]
  reactivity with anti-mouse CTLA-4 monoclonal antibody: reacted weakly
T cells (spleen cells)
  growth of T cells as compared to W. T. phage: approximately equivalent to that with W. T. phage
